Our source for the Ratio, Activity and Drug metabolism values is ChEMBL document CHEMBL4382201 (J Med Chem, 2018).

The subject of experiment [1] is dsDNA. Put plainly: Potency index, ratio of compound activity to melphalan activity for induction of interstanded-cross-link formation in [32P]-labeled 49-mer duplex DNA (unknown origin) in presence of H202 after 16 hrs by PAGE.
Experiment [2] has as its system dsDNA. The experiment can be described thus: Induction of DNA-interstanded-cross-link formation in [32P]-labeled 49-mer duplex DNA (unknown origin) at 1 mM in absence of H2O2 after 16 hrs by PAGE relative to control. Type of experiment: functional. Put shortly:
(§1)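 A 32P-labelled 49-mer, annealed with 1.5 equiv complement (65 °C for 3 min in 10 mM potassium phosphate pH 7, 100 mM NaCl, then slow cooling), was used at 1.0 µM before final dilution. Duplex was mixed with compound (final 1 mM), NaCl and potassium phosphate pH 8, with or without H2O2. Incubation 16 h at room temperature, formamide quench, then 20% denaturing PAGE.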

A short description of experiment [3]: Drug metabolism in DMSO-d6/PBS buffer assessed as 4-((2-chloroethyl)(2-hydroxyethyl)amino)phenylboronic acid formation after 10 days in presence of GSH by IT-TOF mass analysis.
Experiment [4] relates to dsDNA. The experiment can be described thus: Induction of DNA-interstanded-cross-link formation in [32P]-labeled 49-mer duplex DNA (unknown origin) at 1 mM in presence of H2O2 after 16 hrs by PAGE relative to control. The format is functional. Put shortly: as §1
Experiment [5] in a line: Drug metabolism in DMSO-d6/PBS buffer assessed as N,N-bis(2-chloroethyl)aniline formation after 10 days in presence of GSH by IT-TOF mass analysis.
Experiment [6] concerns dsDNA. Put plainly: Potency index, ratio of compound activity to chlorambucil activity for induction of interstanded-cross-link formation in [32P]-labeled 49-mer duplex DNA (unknown origin) in presence of H202 after 16 hrs by PAGE.

For the compound `OB(O)c1ccc(N(CCCl)CCCl)cc1`, the Ratio in the experiment with dsDNA [1] and with dsDNA [6] was 8 each time. The results for the Activity in the experiment with dsDNA [2] and in the experiment with dsDNA [4] were 1.7% and under 65%, respectively. Also, the Drug metabolism result in experiment [3] and in experiment [5] was “Metabolite detected” in each case.
